Data reported in patent publication US20260384438A1, “PYRROLOPYRIMIDINE CARBOXAMIDES” (published 2026).

Protein sequences, listed by entry. Tags and fused reporters are not part of them. Residues count along the entry.
UniProt O14976, whole entry: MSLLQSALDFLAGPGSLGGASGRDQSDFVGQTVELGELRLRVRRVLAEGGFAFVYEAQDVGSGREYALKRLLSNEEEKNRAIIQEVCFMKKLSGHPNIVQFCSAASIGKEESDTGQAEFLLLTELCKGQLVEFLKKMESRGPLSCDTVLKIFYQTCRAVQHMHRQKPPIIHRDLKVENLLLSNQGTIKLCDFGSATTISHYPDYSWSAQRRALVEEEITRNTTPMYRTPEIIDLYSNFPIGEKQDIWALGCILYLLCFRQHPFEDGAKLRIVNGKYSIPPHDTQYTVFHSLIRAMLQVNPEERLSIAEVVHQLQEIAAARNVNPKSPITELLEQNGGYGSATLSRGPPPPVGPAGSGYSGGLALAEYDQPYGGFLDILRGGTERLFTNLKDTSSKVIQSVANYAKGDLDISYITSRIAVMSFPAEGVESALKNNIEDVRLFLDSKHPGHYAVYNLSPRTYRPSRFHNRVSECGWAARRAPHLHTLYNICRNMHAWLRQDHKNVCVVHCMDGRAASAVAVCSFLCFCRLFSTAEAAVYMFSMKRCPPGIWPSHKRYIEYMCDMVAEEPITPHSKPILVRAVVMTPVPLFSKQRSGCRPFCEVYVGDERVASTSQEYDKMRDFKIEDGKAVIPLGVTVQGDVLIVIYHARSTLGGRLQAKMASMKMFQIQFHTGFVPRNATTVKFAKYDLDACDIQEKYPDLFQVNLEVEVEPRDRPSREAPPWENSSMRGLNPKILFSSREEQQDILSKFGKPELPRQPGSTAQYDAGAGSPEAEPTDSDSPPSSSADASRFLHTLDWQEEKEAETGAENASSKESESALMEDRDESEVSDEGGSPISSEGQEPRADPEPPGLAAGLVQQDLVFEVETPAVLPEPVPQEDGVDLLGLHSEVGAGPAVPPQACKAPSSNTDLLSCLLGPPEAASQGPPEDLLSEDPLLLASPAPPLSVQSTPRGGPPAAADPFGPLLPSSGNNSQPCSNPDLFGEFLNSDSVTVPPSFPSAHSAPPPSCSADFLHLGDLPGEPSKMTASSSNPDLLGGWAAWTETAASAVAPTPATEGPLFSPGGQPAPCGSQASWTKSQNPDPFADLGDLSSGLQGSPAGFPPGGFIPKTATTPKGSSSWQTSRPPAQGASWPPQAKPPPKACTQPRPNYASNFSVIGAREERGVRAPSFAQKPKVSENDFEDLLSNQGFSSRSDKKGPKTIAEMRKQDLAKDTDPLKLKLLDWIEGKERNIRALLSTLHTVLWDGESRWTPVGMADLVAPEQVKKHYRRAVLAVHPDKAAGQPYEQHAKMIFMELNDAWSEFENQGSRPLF
UniProt P30291, whole entry: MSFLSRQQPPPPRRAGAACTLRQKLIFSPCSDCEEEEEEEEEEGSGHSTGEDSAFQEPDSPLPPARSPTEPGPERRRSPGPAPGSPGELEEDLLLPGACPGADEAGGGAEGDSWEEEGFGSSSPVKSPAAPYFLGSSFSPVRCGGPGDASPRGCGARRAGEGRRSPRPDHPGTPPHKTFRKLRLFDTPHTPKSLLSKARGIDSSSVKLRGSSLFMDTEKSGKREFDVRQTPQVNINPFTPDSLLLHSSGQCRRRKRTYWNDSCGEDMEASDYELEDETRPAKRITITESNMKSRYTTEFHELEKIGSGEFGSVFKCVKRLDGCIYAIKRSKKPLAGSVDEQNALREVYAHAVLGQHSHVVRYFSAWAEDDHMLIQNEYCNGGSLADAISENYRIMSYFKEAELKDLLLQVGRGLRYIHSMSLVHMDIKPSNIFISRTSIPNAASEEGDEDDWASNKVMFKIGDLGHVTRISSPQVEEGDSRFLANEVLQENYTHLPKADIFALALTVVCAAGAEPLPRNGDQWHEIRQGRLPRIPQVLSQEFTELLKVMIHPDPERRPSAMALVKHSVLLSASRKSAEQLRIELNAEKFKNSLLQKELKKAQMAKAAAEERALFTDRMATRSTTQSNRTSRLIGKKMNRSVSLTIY
UniProt P19525, whole entry: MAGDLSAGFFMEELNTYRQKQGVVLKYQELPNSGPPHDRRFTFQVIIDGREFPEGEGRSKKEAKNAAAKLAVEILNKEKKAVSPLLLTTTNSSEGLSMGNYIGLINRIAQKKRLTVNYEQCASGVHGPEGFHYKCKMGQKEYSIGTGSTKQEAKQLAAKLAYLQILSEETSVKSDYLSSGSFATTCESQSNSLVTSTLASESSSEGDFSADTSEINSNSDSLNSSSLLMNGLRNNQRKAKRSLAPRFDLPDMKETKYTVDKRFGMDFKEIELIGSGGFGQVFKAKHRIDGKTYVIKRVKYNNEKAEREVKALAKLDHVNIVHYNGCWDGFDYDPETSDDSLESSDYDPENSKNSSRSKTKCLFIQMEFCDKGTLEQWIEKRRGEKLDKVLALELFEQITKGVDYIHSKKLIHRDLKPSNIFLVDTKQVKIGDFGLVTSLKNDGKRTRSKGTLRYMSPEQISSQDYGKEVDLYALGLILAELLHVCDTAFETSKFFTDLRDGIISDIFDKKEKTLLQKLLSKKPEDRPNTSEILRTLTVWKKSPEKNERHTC
UniProt Q8IVH8, whole entry: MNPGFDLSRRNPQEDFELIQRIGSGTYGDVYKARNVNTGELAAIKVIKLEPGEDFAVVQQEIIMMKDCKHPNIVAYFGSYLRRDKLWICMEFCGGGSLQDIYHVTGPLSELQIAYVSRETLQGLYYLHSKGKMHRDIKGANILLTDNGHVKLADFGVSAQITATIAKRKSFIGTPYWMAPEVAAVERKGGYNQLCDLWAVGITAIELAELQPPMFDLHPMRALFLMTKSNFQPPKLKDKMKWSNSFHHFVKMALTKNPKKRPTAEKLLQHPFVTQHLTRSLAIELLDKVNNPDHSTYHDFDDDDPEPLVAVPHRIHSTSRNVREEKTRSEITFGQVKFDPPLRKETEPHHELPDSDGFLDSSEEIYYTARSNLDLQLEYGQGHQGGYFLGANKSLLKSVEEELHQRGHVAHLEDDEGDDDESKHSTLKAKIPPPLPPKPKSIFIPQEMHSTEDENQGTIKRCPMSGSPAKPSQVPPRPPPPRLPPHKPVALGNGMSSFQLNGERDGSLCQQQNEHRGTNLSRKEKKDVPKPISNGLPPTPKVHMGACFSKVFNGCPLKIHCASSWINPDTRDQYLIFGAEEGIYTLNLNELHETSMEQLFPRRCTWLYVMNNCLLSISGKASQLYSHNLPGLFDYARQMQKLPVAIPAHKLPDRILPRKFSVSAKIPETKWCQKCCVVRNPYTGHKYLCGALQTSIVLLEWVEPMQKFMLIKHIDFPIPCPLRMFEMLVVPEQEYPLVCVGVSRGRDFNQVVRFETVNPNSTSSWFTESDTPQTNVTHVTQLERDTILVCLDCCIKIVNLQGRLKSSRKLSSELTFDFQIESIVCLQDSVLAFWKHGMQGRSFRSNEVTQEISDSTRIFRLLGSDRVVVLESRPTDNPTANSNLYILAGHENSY
UniProt P54646, whole entry: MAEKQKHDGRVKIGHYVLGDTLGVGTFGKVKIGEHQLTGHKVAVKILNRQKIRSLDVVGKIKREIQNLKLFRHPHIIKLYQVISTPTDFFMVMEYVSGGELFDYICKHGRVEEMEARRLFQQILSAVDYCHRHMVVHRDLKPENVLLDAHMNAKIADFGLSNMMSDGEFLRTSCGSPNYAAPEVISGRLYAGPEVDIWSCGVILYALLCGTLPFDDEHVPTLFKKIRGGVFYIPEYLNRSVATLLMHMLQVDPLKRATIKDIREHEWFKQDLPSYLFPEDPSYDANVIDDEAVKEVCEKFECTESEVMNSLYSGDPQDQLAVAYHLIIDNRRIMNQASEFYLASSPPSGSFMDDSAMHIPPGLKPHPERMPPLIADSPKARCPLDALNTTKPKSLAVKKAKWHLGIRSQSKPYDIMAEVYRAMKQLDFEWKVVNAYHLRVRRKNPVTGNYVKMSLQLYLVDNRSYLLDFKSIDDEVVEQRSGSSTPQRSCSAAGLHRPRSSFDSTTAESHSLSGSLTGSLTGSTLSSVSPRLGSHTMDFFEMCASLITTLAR
UniProt Q13705, 19-512 limits assumed: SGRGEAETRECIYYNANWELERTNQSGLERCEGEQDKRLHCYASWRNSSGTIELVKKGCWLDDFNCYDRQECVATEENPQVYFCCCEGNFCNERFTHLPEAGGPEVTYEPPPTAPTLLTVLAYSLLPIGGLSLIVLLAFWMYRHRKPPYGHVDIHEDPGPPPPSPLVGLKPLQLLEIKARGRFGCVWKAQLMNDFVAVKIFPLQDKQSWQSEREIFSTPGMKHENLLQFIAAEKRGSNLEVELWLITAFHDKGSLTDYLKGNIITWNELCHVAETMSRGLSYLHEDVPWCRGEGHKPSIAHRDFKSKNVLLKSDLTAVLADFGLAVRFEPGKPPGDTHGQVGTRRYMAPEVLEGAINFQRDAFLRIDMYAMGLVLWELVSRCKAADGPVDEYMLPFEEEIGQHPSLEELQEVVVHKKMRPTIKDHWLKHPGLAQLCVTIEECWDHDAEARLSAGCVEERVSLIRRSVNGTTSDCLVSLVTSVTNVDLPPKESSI
UniProt Q9NY57, whole entry: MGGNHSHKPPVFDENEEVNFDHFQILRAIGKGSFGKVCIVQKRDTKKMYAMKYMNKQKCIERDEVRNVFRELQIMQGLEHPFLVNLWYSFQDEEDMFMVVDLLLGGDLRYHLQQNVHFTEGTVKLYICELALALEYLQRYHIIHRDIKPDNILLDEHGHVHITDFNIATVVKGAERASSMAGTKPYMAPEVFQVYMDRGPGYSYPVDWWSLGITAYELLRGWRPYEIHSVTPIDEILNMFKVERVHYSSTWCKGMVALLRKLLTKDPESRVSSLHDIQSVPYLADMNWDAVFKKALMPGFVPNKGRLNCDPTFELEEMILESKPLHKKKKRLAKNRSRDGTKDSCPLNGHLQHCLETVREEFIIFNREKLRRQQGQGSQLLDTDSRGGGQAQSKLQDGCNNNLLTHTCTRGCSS
UniProt P36897, 34-503 limits assumed: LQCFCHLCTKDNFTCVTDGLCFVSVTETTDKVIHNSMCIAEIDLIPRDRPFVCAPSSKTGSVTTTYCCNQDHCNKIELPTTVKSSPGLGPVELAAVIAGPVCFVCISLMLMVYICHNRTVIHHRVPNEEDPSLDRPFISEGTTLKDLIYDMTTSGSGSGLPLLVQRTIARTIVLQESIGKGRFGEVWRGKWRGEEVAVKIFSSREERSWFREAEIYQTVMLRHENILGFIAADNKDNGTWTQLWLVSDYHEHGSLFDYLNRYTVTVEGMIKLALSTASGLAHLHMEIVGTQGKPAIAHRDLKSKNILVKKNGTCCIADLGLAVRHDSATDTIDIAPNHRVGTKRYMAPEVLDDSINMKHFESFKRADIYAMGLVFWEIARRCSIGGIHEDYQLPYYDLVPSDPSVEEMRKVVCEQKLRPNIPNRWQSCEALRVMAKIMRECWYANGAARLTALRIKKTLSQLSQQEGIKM
UniProt P53671, whole entry: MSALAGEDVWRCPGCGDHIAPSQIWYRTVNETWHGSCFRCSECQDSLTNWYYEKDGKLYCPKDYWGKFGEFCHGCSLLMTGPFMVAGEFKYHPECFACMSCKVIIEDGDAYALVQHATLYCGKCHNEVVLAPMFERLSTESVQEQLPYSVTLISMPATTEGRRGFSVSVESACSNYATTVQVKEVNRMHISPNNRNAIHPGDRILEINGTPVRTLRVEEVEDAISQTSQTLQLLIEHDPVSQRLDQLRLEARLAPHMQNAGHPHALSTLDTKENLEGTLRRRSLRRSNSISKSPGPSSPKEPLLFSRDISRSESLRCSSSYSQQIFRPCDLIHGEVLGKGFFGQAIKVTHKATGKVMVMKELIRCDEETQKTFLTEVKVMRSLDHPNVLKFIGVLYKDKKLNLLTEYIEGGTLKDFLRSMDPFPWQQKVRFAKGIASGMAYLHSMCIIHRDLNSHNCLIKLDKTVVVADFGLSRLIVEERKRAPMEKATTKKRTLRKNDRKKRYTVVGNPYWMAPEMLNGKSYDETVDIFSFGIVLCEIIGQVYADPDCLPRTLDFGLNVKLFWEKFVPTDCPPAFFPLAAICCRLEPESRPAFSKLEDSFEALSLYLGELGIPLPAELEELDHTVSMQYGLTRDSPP
UniProt Q13163, whole entry: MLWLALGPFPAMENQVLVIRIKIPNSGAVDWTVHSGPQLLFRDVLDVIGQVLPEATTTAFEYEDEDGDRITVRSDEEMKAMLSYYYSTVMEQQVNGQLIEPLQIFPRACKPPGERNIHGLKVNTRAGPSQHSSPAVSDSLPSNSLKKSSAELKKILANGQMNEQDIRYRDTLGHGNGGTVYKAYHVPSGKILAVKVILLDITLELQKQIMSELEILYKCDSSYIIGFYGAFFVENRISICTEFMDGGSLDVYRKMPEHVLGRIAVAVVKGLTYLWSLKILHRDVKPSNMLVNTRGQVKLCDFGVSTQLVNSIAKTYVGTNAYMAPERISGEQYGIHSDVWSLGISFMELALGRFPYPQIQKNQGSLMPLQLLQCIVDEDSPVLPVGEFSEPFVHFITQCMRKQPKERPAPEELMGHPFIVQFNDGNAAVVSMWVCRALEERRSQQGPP

How the values were obtained:
Assay in all cases: Kinase profiling, Lantha
GAK = GAK (Homo sapiens, UniProt O14976); details: 1 μM, KmATP
CDK9 (Inactive) = CDK9 (Inactive) (Homo sapiens, UniProt P50750); details: 1 μM, KmATP
CDK8/cyclin C = CDK8/cyclin C (Homo sapiens, UniProt P49336); details: 1 μM, KmATP
TLK2 = TLK2 (Homo sapiens, UniProt Q86UE8); details: 1 μM, KmATP
WEE1 = WEE1 (Homo sapiens, UniProt P30291)
MYLK4 = MYLK4 (Homo sapiens, UniProt Q86YV6); details: 1 μM, KmATP
EIF2AK2 (PKR) = EIF2AK2 (PKR) (Homo sapiens, UniProt P19525); details: 1 μM, KmATP
MAP3K3 (MEKK3) = MAP3K3 (MEKK3) (Homo sapiens, UniProt Q99759); details: 1 μM, KmATP
CDK2/Cyclin O = CDK2/Cyclin O (Homo sapiens, UniProt P24941); details: 1 μM, KmATP
CDK5 (Inactive) = CDK5 (Inactive) (Homo sapiens, UniProt Q00535); details: 1 μM, KmATP
PKMYT1 = PKMYT1 (Homo sapiens, UniProt Q99640)
MAP3K5 (ASK1) = MAP3K5 (ASK1) (Homo sapiens, UniProt Q99683); details: 1 μM, KmATP
TNIK = TNIK (Homo sapiens, UniProt Q9UKE5); details: 1 μM, KmATP
DDR1 = DDR1 (Homo sapiens, UniProt Q08345); details: 1 μM, KmATP
MAP4K3 (GLK) = MAP4K3 (GLK) (Homo sapiens, UniProt Q8IVH8); details: 1 μM, KmATP
DYRK2 = DYRK2 (Homo sapiens, UniProt Q92630); details: 1 μM, KmATP
TNK2 (ACK) = TNK2 (ACK) (Homo sapiens, UniProt Q07912); details: 1 μM, KmATP
AMPK (A2/B2/G1) = AMPK (A2/B2/G1) (Homo sapiens, UniProt P54646); details: 1 μM, KmATP
AMPK (A2/B2/G2) = AMPK (A2/B2/G2) (Homo sapiens, UniProt P54646); details: 1 μM, KmATP
ACVR2B = ACVR2B (Homo sapiens, UniProt Q13705)
MYLK3 Hu Bind = MYLK3 Hu Bind (Homo sapiens, UniProt Q32MK0); details: 1 μM, KmATP
CDK2/Cyclin E1 = CDK2/Cyclin E1 (Homo sapiens, UniProt P24941); details: 1 μM, KmATP
PKN2 (PRK2) = PKN2 (PRK2) (Homo sapiens, UniProt Q16513); details: 1 μM, KmATP
CDK9/cyclin K = CDK9/cyclin K (Homo sapiens, UniProt P50750); details: 1 μM, KmATP
EPHA3 = EPHA3 (Homo sapiens, UniProt P29320)
SIK3 = SIK3 (Homo sapiens, UniProt Q9Y2K2); details: 1 μM, KmATP
STK32B (YANK2) = STK32B (YANK2) (Homo sapiens, UniProt Q9NY57); details: 1 μM, KmATP
TGFBR1 (ALK5) = TGFBR1 (ALK5) (Homo sapiens, UniProt P36897)
WNK2 = WNK2 (Homo sapiens, UniProt Q9Y3S1); details: 1 μM, KmATP
CDC7/DBF4 = CDC7/DBF4 (Homo sapiens, UniProt O00311); details: 1 μM, KmATP
CDK16(PCTK1)/cyclinY = CDK16(PCTK1)/cyclinY (Homo sapiens, UniProt Q00536); details: 1 μM, KmATP
LIMK2 = LIMK2 (Homo sapiens, UniProt P53671); details: 1 μM, KmATP
MASTL = MASTL (Homo sapiens, UniProt Q96GX5); details: 1 μM, KmATP
EPHA7 = EPHA7 (Homo sapiens, UniProt Q15375); details: 1 μM, KmATP
CAMK2G = CAMK2G (Homo sapiens, UniProt Q13555); details: 1 μM, KmATP
DMPK = DMPK (Homo sapiens, UniProt Q09013); details: 1 μM, KmATP
MAP2K5 (MEK5) = MAP2K5 (MEK5) (Homo sapiens, UniProt Q13163); details: 1 μM, KmATP
MLK4 = MLK4 (Homo sapiens, UniProt Q5TCX8); details: 1 μM, KmATP
AAK1 = AAK1 (Homo sapiens, UniProt Q2M2I8); details: 1 μM, KmATP

Cc1nc(C(F)(F)F)c2c(C(N)=O)c(N)n(-c3c(C)ccc(O)c3C)c2n1 (single isomer, unassigned)
MEAN INHIBITION (GAK): 0.979%
MEAN INHIBITION (CDK9 (Inactive)): −2.367%
MEAN INHIBITION (CDK8/cyclin C): 13.629%
MEAN INHIBITION (TLK2): 16.812%
MEAN INHIBITION (WEE1; 1 μM, KmATP): 60.552%
IC50 (WEE1; 10-point CR, top 10 μM): 422 nM
MEAN INHIBITION (MYLK4): −1.538%
MEAN INHIBITION (EIF2AK2 (PKR)): 2.190%
MEAN INHIBITION (MAP3K3 (MEKK3)): 8.215%
MEAN INHIBITION (CDK2/Cyclin O): −2.029%
MEAN INHIBITION (CDK5 (Inactive)): −5.417%
MEAN INHIBITION (PKMYT1; 1 μM, KmATP): 97.172%
IC50 (PKMYT1; 10-point CR, top 10 μM): 3 nM
MEAN INHIBITION (MAP3K5 (ASK1)): −2.537%
MEAN INHIBITION (TNIK): 4.907%
MEAN INHIBITION (DDR1): 7.439%
MEAN INHIBITION (MAP4K3 (GLK)): 1.158%
MEAN INHIBITION (DYRK2): 0.289%
MEAN INHIBITION (TNK2 (ACK)): 45.685%
MEAN INHIBITION (AMPK (A2/B2/G1)): −0.942%
MEAN INHIBITION (AMPK (A2/B2/G2)): 1.418%
MEAN INHIBITION (ACVR2B; 1 μM, KmATP): 102.327%
IC50 (ACVR2B; 10-point CR, top 10 μM): 25 nM
MEAN INHIBITION (MYLK3 Hu Bind): −1.113%
MEAN INHIBITION (CDK2/Cyclin E1): 3.273%
MEAN INHIBITION (PKN2 (PRK2)): 3.734%
MEAN INHIBITION (CDK9/cyclin K): 0.354%
MEAN INHIBITION (EPHA3; 1 μM, KmATP): 43.400%
IC50 (EPHA3; 10-point CR, top 10 μM): 1090 nM
MEAN INHIBITION (SIK3): 15.273%
MEAN INHIBITION (STK32B (YANK2)): −14.522%
MEAN INHIBITION (TGFBR1 (ALK5); 1 μM, KmATP): 83.957%
IC50 (TGFBR1 (ALK5); 10-point CR, top 10 μM): 119 nM
MEAN INHIBITION (WNK2): 2.291%
MEAN INHIBITION (CDC7/DBF4): 3.217%
MEAN INHIBITION (CDK16(PCTK1)/cyclinY): −0.183%
MEAN INHIBITION (LIMK2): −0.783%
MEAN INHIBITION (MASTL): 2.020%
MEAN INHIBITION (EPHA7): 1.546%
MEAN INHIBITION (CAMK2G): 5.694%
MEAN INHIBITION (DMPK): 3.222%
MEAN INHIBITION (MAP2K5 (MEK5)): 5.334%
MEAN INHIBITION (MLK4): −9.807%
MEAN INHIBITION (AAK1): −3.536%
